# Ab-14 heavy chain CDR variants: yeast mating affinities

All variants were tested on one target, the spike HR2 peptide PDVDLGDISGINAS (SARS-CoV-2).

Parent: Ab-14, a human scFv built as VH, the linker GGGGSGGGGSGGGGS, VL. Only the CDRs of the heavy chain vary.
VH: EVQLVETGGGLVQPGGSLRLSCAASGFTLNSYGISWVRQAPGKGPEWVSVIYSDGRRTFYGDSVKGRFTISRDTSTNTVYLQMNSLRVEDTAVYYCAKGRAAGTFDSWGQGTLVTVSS
VL: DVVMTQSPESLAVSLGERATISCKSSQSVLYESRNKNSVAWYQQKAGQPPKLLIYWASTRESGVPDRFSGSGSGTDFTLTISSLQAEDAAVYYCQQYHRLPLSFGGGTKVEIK

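The parent was found by panning a naive human phage display library on the peptide. The variants were designed computationally from a first round of random CDR variants and then made and measured. Several design methods are mixed in this list. The scFvs were displayed on barcoded MATa yeast, the peptide on MATalpha yeast. Mating (16 h, 30 °C) was followed by selection of diploids and sequencing of their barcodes. Read counts were normalised to the haploid input and turned into Kd by a linear fit to BCL2-family pairs of known affinity, for each replicate. Each pool was mated in six replicate cultures.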

Each variant is given by its three heavy chain CDRs, as the data file delimits them; those of the parent are GFTLNSYGIS, VIYSDGRRTFYGDSVK, GRAAGTFDS.
This list holds designs with more than six substitutions.
Each Kd is an estimate from the mating assay, the geometric mean of the replicates in which the pair was seen; lower is stronger.
A pair that was not seen in any replicate is written "nd"; this usually means weak binding, but a binder can also be missed.

The variant GFDLNEYGIS / VIYADGSRTAYSDSVK / GQTAGTFDA gave 200 pM (6 of 6 replicates; controls 0 of 18). The variant GFNLDDQGIS / VIYADGERTAYSDSVK / GHEGGIMNV gave nd (0 of 6 replicates; controls 0 of 18). For GFDLNEYGIS / VIYADGVRTFYADSVK / GNTAGTFDI, the assay gave 560 pM (6 of 6 replicates; controls 0 of 18). The variant GFDLNEYGIS / VIYADGMRTQYADSVK / GQNAGTFDV gave 3.1 nM (6 of 6 replicates; controls 1 of 18). For GADLDEYGIS / VIYADGNRQAYANSFK / GTNGTFLIN, the assay gave nd (0 of 6 replicates; controls 0 of 18). With GFDLNEYGIS / VIYADGQRTFYTDNVK / GQNAGTFDS the result was 430 pM (6 of 6 replicates; controls 0 of 18). For GFDLDEYGIS / VIYADGHRTNYSTSVK / GTIGGTFFQ, the assay gave 23 nM (1 of 6 replicates; controls 0 of 18). With GFDLNEYGIS / VIYADGRRTFYSDKVK / GNTGGTFDI the result was 430 pM (6 of 6 replicates; controls 1 of 18). With GFDLDEYGIS / VIYADGKRTAYADSVK / GNQAGTFDL the result was nd (0 of 6 replicates; controls 0 of 18).

With GFNLDEYGIS / VIYADGTRTNYLDTVK / GVTGGTFIQ the result was nd (0 of 6 replicates; controls 0 of 18). With GFDLNEYGIS / VIYADGVRTAYADSVK / GNTAGTFDQ the result was 36 pM (6 of 6 replicates; controls 0 of 18). For GFDLDQYGIS / VIYADGMRSVYADDVK / CHWGGIFLV, the assay gave nd (0 of 6 replicates; controls 0 of 18). The variant GFDLDEYGIS / VIYADGMRKAYADSVK / GTNAGTFDV gave 180 pM (6 of 6 replicates; controls 0 of 18). With GFDLDEYGIS / VIYADGRRTFYTDSVK / GSNAGTFDM the result was 2.6 nM (6 of 6 replicates; controls 0 of 18). The variant GFDLDEYGIS / VIYADGMRTFYTDSVK / GEIAGTFDA gave 1.4 nM (6 of 6 replicates; controls 0 of 18). The variant GFDLNEYGIS / VIYADGRRTSYADSVK / GEQAGTFDV showed 460 pM (6 of 6 replicates; controls 0 of 18). The variant GFDLNEYGIS / VIYADGQRTAYADSVK / GKTAGTFDS gave 240 pM (6 of 6 replicates; controls 0 of 18). For GFDLNEYGIS / VIYADGSRTFYSDSVK / GETAGTFDA, the assay gave 720 pM (6 of 6 replicates; controls 0 of 18).

The variant GFDLNEYGIS / VIYADGRRTFYSDSVK / GQTGGTFDT gave 66 pM (4 of 6 replicates; controls 0 of 18). With GFDLNEYGIS / VIYADGQRTYYADSVK / GEVAGTFDV the result was 2.1 nM (6 of 6 replicates; controls 0 of 18). For GFNLDEYGIS / VIYADGRRTFYADSVK / GETAGTFDT, the assay gave 220 pM (6 of 6 replicates; controls 0 of 18). With GMDLGEYGIS / VIYADGVRQAYVDKVK / GFNGVDGIV the result was nd (0 of 6 replicates; controls 0 of 18). The variant GFTDDDYGIS / VIYVDGDRTFYGDSVK / GRAAGNVLS gave 140 nM (1 of 6 replicates; controls 0 of 18). The variant GFDLNEYGIS / VIYADGMRTAYADSVK / GEAAGSFDQ gave 3.7 nM (6 of 6 replicates; controls 0 of 18). With GFDLNEYGIS / VIYADGQRTAYSDDVK / GNVAGTFDV the result was 270 pM (6 of 6 replicates; controls 0 of 18). The variant GFDLNEYGIS / VIYADGRRTFYTDSVK / GSEAGTFNM gave 210 pM (6 of 6 replicates; controls 3 of 18). With GFDLNEYGIS / VIYADGSRTFYADSVK / GNVAGTFDI the result was 330 pM (6 of 6 replicates; controls 0 of 18).

The variant GFDLMEYGIS / VIYADGKRTGYTDKVK / GMFGDTGKT gave nd (0 of 6 replicates; controls 0 of 18). The variant GMDLQEFGIS / VIYADGVREYYTDDFK / GQIAGTFDL showed nd (0 of 6 replicates; controls 0 of 18). The variant GFDLGEYGIS / VIYADGMRSAYTDKVK / GAGANIITH showed nd (0 of 6 replicates; controls 0 of 18). The variant GRNLDEYGIS / VIYADGQRTSYIDNVK / GGDAVDFDM gave 240 nM (1 of 6 replicates; controls 0 of 18). For GFDLNEYGIS / VIYADGRRTAYIDSVK / GHTAGTFDV, the assay gave 410 pM (6 of 6 replicates; controls 0 of 18). For GFDLNEYGIS / VIYADGFRTFYADSVK / GEVAGTFDS, the assay gave 610 pM (6 of 6 replicates; controls 0 of 18). The variant GFNLNEYGIS / VIYADGRRTAYADSVK / GEIAGTFDF gave 200 pM (6 of 6 replicates; controls 0 of 18). The variant GKDMQEYGIS / VIYADGSRAAYGDNFK / GELAGTFDM gave 34 nM (3 of 6 replicates; controls 0 of 18). With GFDLEEYGIS / VIYADGRRTFYADDVK / GENAGTFDI the result was 260 pM (6 of 6 replicates; controls 0 of 18).

The variant GFKLDEYGIS / VIYADGHRVAYSNQVK / GDNMGFMVE showed nd (0 of 6 replicates; controls 0 of 18). With GFDLNEYGIS / VIYADGRRTFYADSVK / GQVAGTFDT the result was 1.1 nM (6 of 6 replicates; controls 0 of 18). For GFDLQEYGIS / VIYADGTREAYSEKVK / GQLAGYFSF, the assay gave nd (0 of 6 replicates; controls 0 of 18). For GFDLEEYGIS / VIYADGLREAYTANVK / GGKSGDFFM, the assay gave nd (0 of 6 replicates; controls 0 of 18). For GFDLNEYGIS / VIYADGKRTFYIDSVK / GEIAGTFNV, the assay gave 210 pM (6 of 6 replicates; controls 0 of 18). The variant GFDLNEYGIS / VIYADGQRTFYADSVK / GQTAGTFDV showed 410 pM (6 of 6 replicates; controls 0 of 18). The variant GFDLNEYGIS / VIYADGMRTAYSDSVK / GNEAGTFDI showed 2.0 nM (6 of 6 replicates; controls 1 of 18). The variant GFSLNEYGIS / VIYADGKRNFYADSVK / GLISGFFDI showed 140 nM (1 of 6 replicates; controls 0 of 18). The variant GFTLNSYGES / VIYADGRITHYGDSVK / GHAAGTNKS showed nd (0 of 6 replicates; controls 1 of 18).

The variant GFWVNEYGIS / VIYYDGRRTFYHQSVK / RRAAVTFDQ showed nd (0 of 6 replicates; controls 0 of 18). The variant GFDLDEYGIS / VIYADGGRVAYAQNVK / GLVGKGGDL gave nd (0 of 6 replicates; controls 0 of 18). With GFDLNEYGIS / VIYADGMRTAYTDSVK / GNNAGTFDL the result was 150 pM (5 of 6 replicates; controls 0 of 18). The variant GFDLNEYGIS / VIYADGKRTAYTDSVK / GETAGTFDV gave 410 pM (6 of 6 replicates; controls 0 of 18). For GFDLNEYGIS / VIYADGMRTAYADSVK / GSNAGTFDQ, the assay gave 370 pM (6 of 6 replicates; controls 0 of 18). The variant GFDLNEYGIS / VIYADGKRTFYSDSVK / GTVAGTFDS gave 300 pM (6 of 6 replicates; controls 0 of 18). With GFELDEMGIS / VIYADGMRAAYSDNVK / GDNRGIFHM the result was nd (0 of 6 replicates; controls 0 of 18).

The first 3 variants above that were never detected:

CDR-H1,CDR-H2,CDR-H3,apparent Kd,replicates with signal,empty controls
GFNLDDQGIS,VIYADGERTAYSDSVK,GHEGGIMNV,nd,0 of 6,0 of 18
GADLDEYGIS,VIYADGNRQAYANSFK,GTNGTFLIN,nd,0 of 6,0 of 18
GFDLDEYGIS,VIYADGKRTAYADSVK,GNQAGTFDL,nd,0 of 6,0 of 18

Of ten entries with the parent sequence, four were seen in most replicates (averages 2.2 nM to 240 nM), three in one and three in none, so single entries are noisy.
A sequence measured in both rounds can read differently, since the two assays cover different ranges.
The authors averaged sequences with at least three values out of six and counted those with two or fewer as poor binders.
Nonspecific signal, from three strains lacking the peptide, appeared in 1% of pairings of all heavy chain designs, centred on 120 nM (5% of these signals below 7.0 nM); values are not corrected for it. The control count says in how many pairings with the empty strains this scFv gave a signal.

From the AlphaSeq antibody data of Li et al. 2023 (doi:10.1038/s41467-023-39022-2), copy in the FLAb collection.